The values that follow come from PubChem BioAssay (EPA / NIEHS).

Sequences of proteins named here, by UniProt entry; tags and fusion partners are left off.
UniProt P03372, whole entry, looked up: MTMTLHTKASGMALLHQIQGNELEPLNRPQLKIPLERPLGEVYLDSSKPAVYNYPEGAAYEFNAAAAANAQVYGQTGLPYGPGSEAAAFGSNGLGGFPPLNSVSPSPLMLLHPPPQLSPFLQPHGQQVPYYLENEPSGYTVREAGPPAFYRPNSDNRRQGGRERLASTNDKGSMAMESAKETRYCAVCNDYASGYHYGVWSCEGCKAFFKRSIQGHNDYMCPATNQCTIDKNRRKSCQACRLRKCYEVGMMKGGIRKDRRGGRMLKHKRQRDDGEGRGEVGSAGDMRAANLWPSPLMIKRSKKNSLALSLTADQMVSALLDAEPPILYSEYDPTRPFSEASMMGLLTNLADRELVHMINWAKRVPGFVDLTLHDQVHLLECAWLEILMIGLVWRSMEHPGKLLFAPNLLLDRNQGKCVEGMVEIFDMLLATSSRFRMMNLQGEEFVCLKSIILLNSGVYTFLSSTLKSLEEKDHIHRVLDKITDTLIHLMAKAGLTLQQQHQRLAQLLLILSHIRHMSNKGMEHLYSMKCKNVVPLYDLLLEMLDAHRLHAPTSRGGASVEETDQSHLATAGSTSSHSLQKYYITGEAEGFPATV

Several values for one entry are separate records, joined by “and”; a condition that tells them apart may be missing. Equal entries are not always repeated. Only a part is listed here, and it is no random draw. Records with an inconclusive call do not appear. Activity calls are given as the source filed them. Rule for the calls, unless noted: active = hit-call score of the fitted dose curve at least 0.9, where 1 is the maximum; inactive = score below 0.9.

Test [1] can be described thus: CCTE_Shafer_MEA_acute_per_network_burst_spike_number_std: CCTE's Neural Acute Assay for Standard Deviation of Number of Spikes in a Network Burst, Shafer Lab (AID 2284020).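 Note: fitted for decrease in spike-number SD versus DMSO so actives lower it.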 A digest of the protocol:
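Spontaneous network activity of primary rat cortical neurons is recorded extracellularly before and after a 40-min compound exposure (0.03-40 uM) at 37 C. The endpoint is the well's percent change in burst spike-number SD.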

Test [2] in a line: CCTE_Shafer_MEA_acute_per_network_burst_electrodes_number_mean: CCTE's Neural Acute Assay for Mean Number of Electrodes in a Network Burst, Shafer Lab (AID 2284021).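 Note: curves fitted for decreases only so hits reduce electrodes per burst.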 Summed up: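 Percent change from baseline was computed as mean electrode count per network burst, comparing 40 min recordings before and during compound (0.03-40 uM) exposure. Cultures were rat cortical neurons at DIV 13 or 15, recorded on MEAs at 37 C with an adaptive 8x rms threshold.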

Test [3] can be described thus: CCTE_Shafer_MEA_acute_cross_correlation_area: CCTE's Neural Acute Assay for Area of Cross Correlation, Shafer Lab (AID 2284024).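 Note: rat primary cortical neuron networks on 48-well MEA at DIV 13 or 15 with 40 min exposure; area under pooled inter-electrode spike cross-correlation near zero lag as percent change from own baseline; curves fitted for loss of cross-correlation area so actives lower synchrony.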 A digest of the protocol:
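Percent change in well-wide cross-correlation area (window around zero lag) between 40 min baseline and 40 min post-compound recordings, 37 C; rat cortical cultures on MEA at DIV 13 or 15, dosed 0.03-40 uM, wells needing >/= 10 active electrodes.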

Test [4] in a line: CCTE_Shafer_MEA_acute_cross_correlation_HWHM: CCTE's Neural Acute Assay for Cross Correlation at Half Width at Half Maximum, Shafer Lab (AID 2284026).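 For outcome: spontaneous network firing of rat primary cortical neurons on multiwell microelectrode arrays.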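 Note: percent change per well from pre-dose baseline in spike cross-correlogram half width; hits are a decrease in cross-correlogram half width relative to DMSO.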 Summed up: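 Per-well percent change in cross-correlogram half width at half maximum, derived from 40-min recordings before and after compound (0.03-40 uM) at 37 C. Cultures were rat cortical neurons, DIV 13 or 15, with adaptive spike detection at 8x rms.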

Test [5] is described as follows: CCTE_Shafer_MEA_acute_synchrony_index: CCTE's Neural Acute Assay for Synchrony, Shafer Lab (AID 2284027).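 Note: fitted for loss of signal so actives lower synchrony relative to DMSO.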 Summed up: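 Readout is percent change in the unitless network synchrony index (0 low, 1 high) between a 40-min baseline and a 40-min recording in compound. Cultures were primary rat cortical neurons on MEAs, treated at 0.03-40 uM on DIV 13 or 15.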
Test [6] deals with Estrogen receptor (Homo sapiens) (UniProt P03372). The test can be described thus: CCTE_Deisenroth_AIME_384WELL_LUC_Active: CCTE's 384-well Estrogen Receptor Transactivation Assay with AIME metabolic competence (ERTA luciferase; metabolism positive), Deisenroth Lab (AID 2284030; active = hit-call score of the fitted dose curve at least 0.9, where 1 is the maximum). A digest of the protocol: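 VM7Luc4E2 breast cells were given, for 24 hours, medium pre-incubated for 2 hours with parent chemical (0.002-200 uM, 10 concentrations) and alginate-encapsulated phenobarbital/beta-naphthoflavone-induced rat hepatic S9. Luciferase gain of signal was fitted against 17beta-estradiol; n=4 or more.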

For test [7] the target is unchanged. The test can be described thus: CCTE_Deisenroth_AIME_384WELL_LUC_Inactive: CCTE's 384-well Estrogen Receptor Transactivation Assay without AIME metabolic competence (ERTA luciferase; metabolism negative), Deisenroth Lab (AID 2284038; active = hit-call score of the fitted dose curve at least 0.9, where 1 is the maximum;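 note: VM7Luc4E2 breast cells given medium preincubated 2 h with S9-free microspheres; hits raise estrogen receptor luciferase signal so potencies reflect agonists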). A digest of the protocol: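 Metabolism-negative mode: chemicals (10-point, 0.002–200 uM) held 2 h with alginate-water microspheres, then conditioned medium applied to VM7Luc4E2 cells for 24 h. Luciferase induction referenced to 17beta-estradiol.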

A short description of test [8]: CCTE_Shafer_MEA_dev_firing_rate_mean: CCTE's Neural Network Formation Assay for Mean Firing Rate, Shafer Lab (AID 2284031).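 For AC50: curve fitted for loss of firing so AC50 reflects decreased mean firing rate.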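 Note: AUC of well mean spike rate recorded on DIV 5 7 9 and 12.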 A digest of the protocol:
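Rat primary cortical neurons were seeded on multielectrode arrays and treated from plating through day 12, with redosing at each feed. Spontaneous spiking was recorded four times; mean firing rate AUC was fitted downward against DMSO.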

The nature of test [9]: CCTE_Shafer_MEA_dev_per_burst_spike_percent: CCTE's Neural Network Formation Assay for Percent of Spikes in a Burst, Shafer Lab (AID 2284032). A digest of the protocol:
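Rat primary cortical neurons on 16-electrode MEA wells, dosed from plating day 0 for 12 days with renewal on DIV 5 and 9; spikes-in-bursts percentage averaged over bursting electrodes, collapsed as AUC across days 5, 7, 9, 12; loss direction versus DMSO.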

Test [10] can be described thus: CCTE_Shafer_MEA_acute_network_burst_percentage: CCTE's Neural Acute Assay for Percentage of Network Bursts, Shafer Lab (AID 2284022).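 Note: curves fitted for loss so actives lower network burst percentage.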 A digest of the protocol:
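Network burst percentage (spikes in network bursts divided by total spikes) recorded at 37 C over 40 min baseline and 40 min after compound, 0.03-40 uM, in rat cortical cultures at DIV 13 or 15. Analysed as percent change from baseline versus DMSO.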

As to `O=C1C2CC=CCC2C(=O)N1SC(Cl)(Cl)C(Cl)Cl` (centres undefined), the molecule was called inactive in test [1], in test [2], in [3], in test [4] and in test [5].

Turning to `ClP(Cl)c1ccccc1`, the molecule was classed as inactive in [6] and in test [7].

With `CC(C)OP(=O)(OC(C)C)SCCNS(=O)(=O)c1ccccc1`, the concentration at half-maximal activity (AC50) in test [8] is active: 30.3 µM. Also, the molecule was called inactive in test [9].

`CN(C(=O)Cc1cccc2occc12)[C@H]1CC[C@@]2(CCCO2)C[C@@H]1N1CCCC1`: the AC50 in test [1] is active: 5.14 µM; in test [2], active: 36.1 µM; in test [10], active: 30.5 µM; in test [4] it was active: 7.38 µM; in test [5], active: 32.8 µM. Further, the molecule was classed as inactive in test [3], in test [8] and in [9].

Take `CC(C)OP(=S)(OC(C)C)SCCNS(=O)(=O)c1ccccc1`: the outcome in test [1], in test [2], in [10] and in [3] was inactive. Besides, the AC50 in test [4] was active: 20 µM; in test [5], active: 31.9 µM; in test [8] it was active: 16.9 µM and active: 13.8 µM.
